Test results published in PubChem BioAssay AID1671190 (National Center for Advancing Translational Sciences (NCATS), 2021).
The list shows a part of the results, in another mix than the full data. Inconclusive results are not listed. Active and inactive are the calls of the source. Calls come from the whole dose curve; as a rule, active = well fitted inhibition curve with a large enough effect; inconclusive = small, poorly fitted or top-dose-only effect, or another doubt; inactive = no such curve, though single readings can be large or run the other way.

Sequences of proteins named here, by UniProt entry; tags and fusion partners are left off. A change or cut given only in a name is not applied to a line headed by its entry.
UniProt P18054: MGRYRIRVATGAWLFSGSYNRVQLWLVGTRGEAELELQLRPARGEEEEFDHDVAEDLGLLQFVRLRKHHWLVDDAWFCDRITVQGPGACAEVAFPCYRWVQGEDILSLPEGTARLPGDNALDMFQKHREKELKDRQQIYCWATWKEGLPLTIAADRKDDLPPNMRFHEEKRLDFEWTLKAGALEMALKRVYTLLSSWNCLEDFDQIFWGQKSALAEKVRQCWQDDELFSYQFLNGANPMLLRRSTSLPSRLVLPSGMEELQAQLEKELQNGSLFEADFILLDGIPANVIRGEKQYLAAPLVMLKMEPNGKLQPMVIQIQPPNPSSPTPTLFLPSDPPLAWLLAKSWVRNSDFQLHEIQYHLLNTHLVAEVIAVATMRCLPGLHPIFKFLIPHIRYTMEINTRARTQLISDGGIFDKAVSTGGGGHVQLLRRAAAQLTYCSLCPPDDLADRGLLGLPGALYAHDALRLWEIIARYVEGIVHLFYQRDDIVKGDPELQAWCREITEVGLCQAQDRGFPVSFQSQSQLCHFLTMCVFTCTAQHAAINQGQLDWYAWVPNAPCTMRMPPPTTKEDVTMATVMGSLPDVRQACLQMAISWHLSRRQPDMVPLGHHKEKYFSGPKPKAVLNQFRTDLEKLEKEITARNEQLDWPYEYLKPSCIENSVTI

What follows are compounds tested against Polyunsaturated fatty acid lipoxygenase ALOX12 (Homo sapiens) (UniProt P18054) (assay: Primary qHTS assay for inhibitors of human arachidonate 12S-lipoxygenase (ALOX12): Round 2). Conditions: purified 12hLO, xylenol orange hydroperoxide absorbance; series mostly up to 108 µM; activity change, negative = inhibition: at the top concentration.
Source text: Assay Provider: Theodore R. Holman Ph.D. University of California, Santa Cruz, California Human lipoxygenase 12hLO is a member of the closely related lipoxygenase family of enzymes which catalyze the site-specific oxidation of arachidonic acid to various hormone precursor molecules and as such is a candidate for drug development in a variety of disease areas, such as cancer and inflammation. Inhibition of 12hLO activity was screened by utilizing arachidonic acid as a substrate. The extent of hydroperoxide product formation was measured by a secondary chromogenic reaction in which xylenol orange (XO, Sigma-Aldrich, cat. number 39,818-7) reacts with the ferric ions produced from the reaction between the hydroperoxide and ferrous ions. The Fe (III)-XO complex is characterized with red-shifted absorbance at 560 nm. A purified preparation of human 12hLO was supplied by Dr. Holman laboratory, University of California, Santa Cruz.
PROTOCOL TABLE SEQUENCE No. (e.g., 1, 2, 3, etc.); […] (e.g., Cells, Incubation, Reagent, etc.); VALUE; DESCRIPTION 1; Enzyme; 3 uL; 150 nM 12hLO enzyme solution dispensed in 1536-well Greiner black, clear bottom plates. 2; Compound; 23 nL; compounds and controls were added. 3; Incubate; 15 min; room temperature. 4; Substrate; 1 uL; 40 uM arachidonic acid (final concentration). 5; Incubate; 30 min; room temperature. 6; Reagent; 4 uL; Fe-XO solution was added to each well. 7; Incubation; 30 min; room temperature 8; Detector; absorbance; Read 1 at 405 nm absorbance using ViewLux (Perkin-Elmer) CCD imager. 9; Detector; absorbance; Read 2 at 573 nm absorbance using ViewLux (Perkin-Elmer) CCD imager. NOTES (numbers refer to sequence above) 1; 150 nM 12hLO (final concentration) in buffer solution (25 mM Hepes, 0.01% Triton X-100, pH 7.0) was dispensed in columns 1, 2, 5-48. Column 1 is neutral (100% activity). Buffer only was dispensed in columns 3 and 4 as no enzyme negative controls. The plates were covered with metal lids with gas-exchange holes. 2; Compounds were pin transferred via a Kalypsys Pin Tool (Wako USA) in column 5-48. Control compound was transferred in column 2, titration of nordihydroguaiaretic acid (NDGA, Sigma-Aldrich, N5023) with top concentration of 20 mM in DMSO then 1:3 dilution in duplicate. Dilution factor of 23 nL into 4 uL final assay volume. 3; Covered assay plates were incubated for 15 min at room temperature. 4; Substrate was added to start the reaction; 40 uM arachidonic acid (Sigma-Aldrich, St. Louis, MO) was dispensed throughout the plate. 6; Chromogenic detection reagent solution (divalent iron/xylenol orange, Fe-XO) was added to each well: 200 uM xylenol orange, 300 uM ferrous ammonium sulfate prepared freshly in 50 mM sulfuric acid. 8, 9; Two absorbance readouts were obtained at 405 nm and at 573 nm using a ViewLux high-throughput CCD plate imager (Perkin-Elmer). The 573 to 405 (Read 2 / Read 1) absorbance ratio was used to compute reaction progress.
% is set by controls: 0 for no effect and ±100 for the full control effect.

Row | Compound | activity change, negative = inhibition | Potency
1 | O=P1(Nc2ccccn2)COc2ccccc2OC1 | inactive: 0% | –
2 | CCC1=CC2Cc3nc4ccc(Cl)cc4c(N)c3C(C1)C2 (stereo unspecified) | inactive: 35.6% | –
3 | CCOP(=O)(NC(=NC(C)c1ccccc1)NC(C)c1ccccc1)OCC (stereo unspecified) | inactive: 13.8% | –
4 | CC(C)/C=N\N=C(\N)N[N+](=O)[O-] | inactive: 12% | –
5 | CN(C(=O)Cc1ccc(Cl)c(Cl)c1)[C@@H]1CCCC[C@H]1N1CCCC1 | – | inactive
6 | CN(C(=O)Cc1ccc(Cl)c(Cl)c1)C1CCCC[C@@H]1N1CCCC1 (stereo partly specified) | inactive: 0.748% | –
7 | COc1ccccc1CNC(=O)COC(=O)C(O)(c1ccccc1)c1ccccc1 | inactive: -2.74% | –
8 | c1nnnn1CCn1cnnn1 | inactive: 0% | –
9 | CC(C)C(=O)NC(Sc1ccccc1)C(Cl)(Cl)Cl (stereo unspecified) | inactive: 5.82% | –
10 | O=P(Nc1nccs1)(c1ccccc1)c1ccccc1 | inactive: 0% | –
11 | O=P(Nc1nc2ccccc2s1)(c1ccccc1)c1ccccc1 | inactive: 3.51% | –
12 | C[C@H]1OP(=O)(Oc2ccccc2)[C@H](O)[C@H](O)[C@H]1N=[N+]=[N-] (stereo partly specified) | inactive: -0.232% | –
13 | Nc1ccc(CCCCOc2ccccc2)cc1 | inactive: -25.7% | –
14 | CN(C)C1(CNC(=O)c2ccc(Cl)c(S(N)(=O)=O)c2)CCCCC1 | inactive: 0% | –
15 | C/C(N)=N\P(=O)(OCc1ccccc1)OCc1ccccc1 | inactive: 2.55% | –
16 | Nc1ccc([As](=O)(O)c2ccc([N+](=O)[O-])cc2)cc1 | inactive: -8.17% | –
17 | O=C(OC1CN2CCC1CC2)c1cccc(Cl)c1 (stereo unspecified) | inactive: 0% | –
18 | O=[N+]([O-])c1ncn(CCn2cnc([N+](=O)[O-])n2)n1 | inactive: 4.23% | –
19 | CC(=O)NC(SC(=S)N(C)C)C(Cl)(Cl)Cl (stereo unspecified) | inactive: 10.4% | –
20 | O=[As](O)(c1ccccc1)c1ccc(O)cc1 | inactive: 1.38% | –
21 | O=P1(N(CCCl)CCCl)OCCC2CCCCN21 (stereo unspecified) | inactive: 14.7% | –
22 | O=C(NC1CCS(=O)(=O)C1)NP(=S)(Oc1ccccc1)Oc1ccccc1 (stereo unspecified) | inactive: -5.3% | –
23 | c1ccc(-c2nn[nH]n2)c(-c2nn[nH]n2)c1 | inactive: -4.48% | –
24 | Cc1ccc(NP(=O)(Oc2cccc(C)c2)Oc2cccc(C)c2)nc1 | inactive: 3.48% | –
25 | CN(C)C(=O)Oc1noc2ccccc12 | inactive: 446% | –
26 | COC(=O)c1cc2c(s1)N=C(c1ccccc1)N(C)P2(=O)N1CCOCC1 (stereo unspecified) | inactive: 34.1% | –

Row | Compound | activity change, negative = inhibition | Potency
27 | CCn1nc(C(=O)NCC2(N3CCCCC3)CCCCC2)c2ccccc2c1=O | inactive: 11.2% | –
28 | Cc1ccc(OP(=O)(Nc2ccccn2)Oc2ccc(C)cc2)cc1 | inactive: -20.1% | –
29 | CC(=O)NC(SC(=S)N(CC(C)C)CC(C)C)C(Cl)(Cl)Cl (stereo unspecified) | inactive: 24% | –
30 | O=C(OC1CN2CCC1CC2)c1ccccc1 (stereo unspecified) | inactive: 3.32% | –
31 | CCC(=O)N1C2C3N(C(=O)CC)C1C1N(C(=O)CC)C(C(N1C(=O)CC)N3C(=O)CC)N2C(=O)CC | inactive: 0% | –
32 | CC(C)(C)C(=O)NC(Sc1ccccc1)C(Cl)(Cl)Cl (stereo unspecified) | inactive: 34.9% | –
33 | CCOc1ccc(C2=NCC(CBr)S2)cc1 (stereo unspecified) | inactive: 4.03% | –
34 | CC(=O)Nc1ccc(Oc2c([N+](=O)[O-])cc([N+](=O)[O-])cc2[N+](=O)[O-])cc1 | inactive: -28.6% | –
35 | CC(=O)c1ccc(N2CC2c2ccncc2)cc1 (stereo unspecified) | inactive: 25.5% | –
36 | COC(=O)C1(C)COP(=O)(NCc2ccccc2)OC1 (stereo unspecified) | inactive: -20.5% | –
37 | Cc1ccccc1CN(C)C(=O)COC(=O)C(O)(c1ccccc1)c1ccccc1 | inactive: 32.7% | –
38 | C[C@@H]1C=CCP(=O)(Oc2ccccc2)O1 (stereo partly specified) | inactive: -10.6% | –
39 | C[C@H]1OP(=O)(Oc2ccccc2)C[C@@H]2O[C@@H]21 (stereo partly specified) | inactive: 6.97% | –
40 | COc1ccccc1OP(=O)(Nc1ccc(C)cn1)Oc1ccccc1OC | inactive: 12.2% | –
41 | Clc1ccc(Cl)c(NC2=NCC(CBr)S2)c1 (stereo unspecified) | inactive: -22.3% | –
42 | NC(=O)c1cc([N+](=O)[O-])cc([N+](=O)[O-])c1N | inactive: -9.24% | –
43 | CN(C(=O)Cc1ccc(Cl)c(Cl)c1)[C@H]1CCCC[C@H]1N1CCCC1 | inactive: -20.3% | –
44 | Cc1ccc(N/C(=N/P(=O)(N2CCOCC2)N2CCOCC2)N2CCOCC2)cc1 | inactive: -49.9% | –
45 | CC(C)CC(=O)NC(Sc1ccc(Cl)cc1)C(Cl)(Cl)Cl (stereo unspecified) | inactive: -30.7% | –
46 | Nc1cc(N)c2nonc2c1[N+](=O)[O-] | inactive: 236% | –
47 | Oc1ccccc1CNc1ccccn1 | inactive: -0.185% | –
48 | CCOP(=O)(Nc1ccccc1)OCC | inactive: 402% | –
49 | Cc1ccc(NP(=O)(Oc2ccccc2F)Oc2ccccc2F)nc1 | inactive: -6.08% | –
50 | CN(C(=O)Cc1ccc(Cl)c(Cl)c1)[C@H]1CCCC[C@@H]1N1CCCC1 | – | inactive
51 | CCn1c(=O)n(C2CCN(CC3CCCCCCC3)C[C@H]2CO)c2ccccc21 (stereo partly specified) | inactive: -5.24% | –
52 | O=C(O)c1ccccc1[As](=O)(O)O | inactive: 0.118% | –

Row | Compound | activity change, negative = inhibition | Potency
53 | CC(=O)Nc1ccc([As](=O)(O)O)cc1 | inactive: -0.747% | –
54 | CCCC1OP(N)(=O)OCC1CC (stereo unspecified) | inactive: 0.009% | –
55 | O=P(Nc1nc2ccc(Cl)cc2s1)(c1ccccc1)c1ccccc1 | inactive: 430% | –
56 | CN(C(=O)Cc1ccccc1)C1CC[C@@]2(CCCO2)C[C@@H]1N1CCCC1 (stereo partly specified) | inactive: 7.19% | –
57 | CCN(N=Nc1nonc1N)c1nonc1N | inactive: 0.162% | –
58 | Nc1cccc2ccc([As](=O)(O)O)cc12 | inactive: 0% | –
59 | O=C(Nc1cc([As](=O)(O)O)ccc1O)c1ccccc1 | inactive: -3.55% | –
60 | O=P1(N(CCCl)CCCl)OCCCS1 (stereo unspecified) | inactive: -0.47% | –
61 | O=[N+]([O-])c1cccc(NC2=NCC(CBr)S2)c1 (stereo unspecified) | inactive: -37% | –
62 | COC(=O)C1(C)COP(=O)(Nc2ccccc2)OC1 (stereo unspecified) | inactive: -8.48% | –
63 | O=C(O)CNc1ccc([As](=O)(O)O)cc1 | inactive: 0.503% | –
64 | O=[N+]([O-])c1ncn(CCn2ncnc2[N+](=O)[O-])n1 | inactive: -1.74% | –
65 | CC(=O)N1C2C3N(C(C)=O)C1C1N(C(C)=O)C(C(N1C(C)=O)N3C(C)=O)N2C(C)=O | inactive: 14.1% | –
66 | Cc1ccc(NP(=O)(Oc2ccccc2)Oc2ccccc2)nc1 | inactive: 5.93% | –
67 | O=[N+]([O-])c1cc([N+](=O)[O-])c(CCNc2ccccc2)c([N+](=O)[O-])c1 | inactive: -15.3% | –
68 | COc1ccc(C2=NCC(CBr)S2)cc1 (stereo unspecified) | inactive: -0.428% | –
69 | CC(C)=N/N=C(\N)N[N+](=O)[O-] | inactive: -20.4% | –
70 | CC(C)c1nc(Nc2ccccc2)n(P(=O)(N(C)C)N(C)C)n1 | inactive: 0.416% | –
71 | CN(C)C(=O)OCCc1n(C)cc[n+]1C | inactive: -17.6% | –
72 | c1cc(-c2nn[nH]n2)ccc1-c1nn[nH]n1 | inactive: 1.9% | –
73 | CC1CCN(C(=O)Oc2c(Cl)cc(Cl)c3cccnc23)CC1 | inactive: 14.4% | –
74 | CC(=O)C1=CCCC2CCC1N2 (stereo unspecified) | inactive: 8.34% | –
75 | Nc1ccc([As](=O)(O)c2ccc(N)cc2)cc1 | inactive: 0% | –
76 | CCN(/C(=N/P(=O)(N1CCOCC1)N1CCOCC1)N1CCOCC1)c1ccc(OC)cc1 | inactive: -3.08% | –
